Earlier results on one substance are cited in US11390616B2 (BRISTOL-MYERS SQUIBB COMPANY, priority 2015, dated 2022).

Sequences of proteins named here, by UniProt entry; tags and fusion partners are left off. A change or cut given only in a name is not applied to a line headed by its entry.
UniProt P35414: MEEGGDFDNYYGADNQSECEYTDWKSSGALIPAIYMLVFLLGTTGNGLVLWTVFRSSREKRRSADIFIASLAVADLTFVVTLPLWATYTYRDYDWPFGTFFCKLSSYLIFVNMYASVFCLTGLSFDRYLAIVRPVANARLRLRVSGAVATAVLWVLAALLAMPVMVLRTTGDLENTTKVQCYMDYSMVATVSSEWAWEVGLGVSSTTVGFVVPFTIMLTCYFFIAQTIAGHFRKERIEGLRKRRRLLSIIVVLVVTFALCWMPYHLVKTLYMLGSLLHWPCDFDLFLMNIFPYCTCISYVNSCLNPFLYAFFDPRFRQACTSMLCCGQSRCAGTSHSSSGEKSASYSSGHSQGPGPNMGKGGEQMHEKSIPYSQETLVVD

For the data set, the target named is APJ receptor (Homo sapiens, UniProt P35414). The note with it: reported; Pitkin et al. 2010; cited from earlier work.

Consider Apelin, for which the binding affinity result is “sub-nanomolar range”.
